# In PubChem BioAssay AID1700 (The Scripps Research Institute Molecular Screening Center, 2009):
# The entries are a selection whose mix differs from that of the whole data set. Calls of active or inactive are those of the source.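 How the source made its calls: active means inhibition above a per-plate limit of that plate's mean compound inhibition plus 3 SD (cut at about 60% in these data); inactive means the rest.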
# Assay: suppression of KLF5 promoter-driven luciferase – DLD-1 cells, luminescence, primary screen (AID 1700);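 further: 0% = DMSO wells and 100% = LY294002 at 200 µM; higher means less KLF5 promoter-driven luciferase light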
# Conditions: DLD-1 KLF5 promoter-luciferase reporter, at 5 µM, stronger effect = higher value
row,SMILES,inhibition
1,CCN(CC)CCCOC(=O)C(O)(c1ccccc1)c1ccccc1,inactive: -20.6%
2,O=[N+]([O-])c1ccc2c(c1)C=Nc1ccccc1O2,inactive: 1.4%
3,Cc1cccc(C)c1OP(C)(N)=O (configuration not stated),inactive: -26.9%
4,CC(C)(C)c1ccc(OP(C)(=O)Nc2ccc(SC(F)(F)F)cc2)cc1 (configuration not stated),inactive: -5.65%
5,Cc1cc(C)cc(OP(C)(N)=O)c1 (configuration not stated),inactive: -36%
6,COc1ccc(OP(C)(=O)Nc2cccc(F)c2)cc1 (configuration not stated),inactive: -27.8%
7,COc1ccccc1OP(C)(=O)Nc1cc(Cl)ccc1C (configuration not stated),inactive: 1.88%
8,Cc1ccc(NP(C)(=O)Oc2ccccc2)c(C)c1 (configuration not stated),inactive: 3.53%
9,COc1ccccc1OP(C)(=O)Nc1ccc(C)cc1 (configuration not stated),inactive: 2.72%
10,CCOC(=O)c1ccc(NP(C)(=O)Oc2ccccc2)cc1 (configuration not stated),inactive: -12.3%
11,CP(=O)(Nc1ccccc1Br)Oc1ccccc1 (configuration not stated),inactive: -18.7%
12,COc1ccccc1OP(C)(=O)Nc1ccccc1 (configuration not stated),inactive: -1.7%
13,CP(=S)(Nn1cnnc1)Oc1ccccc1 (configuration not stated),inactive: 3.82%
14,Cc1cc(C)cc(OP(C)(=O)Nc2ccc(SC(F)(F)F)cc2)c1 (configuration not stated),inactive: -4.09%
15,CCc1ccc(OP(C)(=O)N2CCN(c3ccc([N+](=O)[O-])cc3)CC2)cc1 (configuration not stated),inactive: -1.78%
16,CP(=O)(NC(=O)Nc1ccccc1)Oc1ccccc1 (configuration not stated),inactive: -0.07%
17,CP(=O)(Oc1ccccc1)OC(c1ccccc1)C(F)(F)F (configuration not stated),inactive: 0.21%
18,CP(=O)(Nc1ccc(SC(F)(F)F)cc1)Oc1ccc(Cl)cc1 (configuration not stated),inactive: -9.44%
19,Cc1cccc(C)c1OP(C)(=O)Nc1ccc(SC(F)(F)F)cc1 (configuration not stated),inactive: -5.58%
20,CP(=O)(Nc1ccccn1)Oc1ccc(Cl)cc1 (configuration not stated),inactive: -1.79%
21,CCOC(=O)c1ccc(NP(C)(=O)Oc2ccc(OC)cc2)cc1 (configuration not stated),inactive: -14.6%
22,CCOP(C)(=S)SCC(=O)NC(C)C(=O)O (configuration not stated),inactive: 0.43%
23,O=[N+]([O-])c1cc([N+](=O)[O-])c(-n2nnc3ccccc32)c([N+](=O)[O-])c1,inactive: -23.1%
24,Cc1nc2ccc3ccccc3c2s1.O=[N+]([O-])c1cc([N+](=O)[O-])c(O)c([N+](=O)[O-])c1,inactive: -23.3%
25,CCOC(=O)C(CC)C1=NC(C)(C)Cc2ccccc21.O=[N+]([O-])c1cc([N+](=O)[O-])c(O)c([N+](=O)[O-])c1 (configuration not stated),inactive: -13.9%
26,O=[N+]([O-])c1cc([N+](=O)[O-])c(Nc2nnnn2CCO)c([N+](=O)[O-])c1,inactive: -34.7%
27,CP(=O)(Nc1ccc(SC(F)(F)F)cc1)Oc1ccccc1 (configuration not stated),inactive: -2.14%
